Source: ChEMBL document CHEMBL1144419, “N-terminal fatty acylated His-dPhe-Arg-Trp-NH(2) tetrapeptides: influence of fatty acid chain length on potency and selectivity at the mouse melanocortin receptors and human melanocytes” (J Med Chem, 2005)

The chains behind the UniProt entries cited, without tags or fusion partners. Where a name states a change or a piece, a line headed by the entry shows the natural chain unless it says otherwise.
UniProt Q01727: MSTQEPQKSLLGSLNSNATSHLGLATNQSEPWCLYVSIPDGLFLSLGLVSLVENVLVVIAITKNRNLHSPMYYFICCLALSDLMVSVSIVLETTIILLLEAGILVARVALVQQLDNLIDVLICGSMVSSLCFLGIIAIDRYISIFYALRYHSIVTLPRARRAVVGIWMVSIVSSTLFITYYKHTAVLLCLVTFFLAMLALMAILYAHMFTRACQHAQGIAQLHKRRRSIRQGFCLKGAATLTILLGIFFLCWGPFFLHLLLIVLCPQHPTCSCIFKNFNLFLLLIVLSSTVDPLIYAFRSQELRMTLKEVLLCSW

Biological target: Melanocyte-stimulating hormone receptor (Mus musculus, UniProt Q01727)
Assay: In vitro agonist potency for Mouse Melanocortin 1 receptor
Type: functional

## CC(=O)N[C@@H](Cc1cnc[nH]1)C(=O)N[C@H](Cc1ccccc1)C(=O)N[C@@H](CCCN=C(N)N)C(=O)N[C@@H](Cc1c[nH]c2ccccc12)C(N)=O
  EC50: 0.052 µM
